## scFv variants of Ab-14 (light chain) against a SARS-CoV-2 spike peptide

Antigen: PDVDLGDISGINAS, a 14-residue peptide of the SARS-CoV-2 spike HR2 region.

Each scFv is VH, three GGGGS repeats, VL, as in the parent Ab-14, and differs from it in the CDRs of the light chain only.
VH: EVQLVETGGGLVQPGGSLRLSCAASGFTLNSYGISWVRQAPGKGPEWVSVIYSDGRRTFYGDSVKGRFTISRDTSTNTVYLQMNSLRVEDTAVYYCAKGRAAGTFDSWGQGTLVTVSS
VL: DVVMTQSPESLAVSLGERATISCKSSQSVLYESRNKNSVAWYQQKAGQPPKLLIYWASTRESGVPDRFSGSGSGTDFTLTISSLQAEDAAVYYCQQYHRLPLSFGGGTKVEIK

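Phage display of a naive human antibody library on the peptide gave the parent. These sequences belong to a second round, designed from the earlier measurements on random variants of the parent. Group labels follow the data file (Ctrl: baseline library sampled from a position-specific scoring matrix, with some repeated check sequences; En: ensemble of fine-tuned language models; GP: Gaussian process model; HC: hill climbing; Gen: genetic algorithm; Gibbs: Gibbs sampling; a sequence that several methods proposed may carry one label only). AlphaSeq pools MATa yeast showing the antibodies with MATalpha yeast showing the peptide. The frequency of each diploid, read from paired DNA barcodes, reflects how well the two displayed proteins bind. Each replicate has its own calibration line, from reference interactions of the BCL2 family. Mating was done six times.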

The parent's light chain CDRs are KSSQSVLYESRNKNSVA, WASTRES, QQYHRLPLS; each variant's own CDRs replace them letter for letter. Variants here have more than six changes. Scale: log10 of Kd in nM, estimated from mating counts; low values are strong binders. The mean shown is taken over the replicates in which the pair was detected. Where no diploid with the target was found in any replicate, the entry reads "not detected": below detection, most likely a poor binder, though not proof of it. Order: sorted from the lowest average up, undetected variants last. Nonspecific signal, from three strains lacking the peptide, appeared in 4% of pairings of all light chain designs, centred on 2.64 (5% of these signals below 1.59); values are not corrected for it. Of ten entries with the parent sequence, four were seen in most replicates (averages 0.34 to 2.37), three in one and three in none, so single entries are noisy. The authors' rule: three or more of the six replicates give a measured affinity, fewer mean a poor binder. Values of this round are not directly comparable with the first-round values of the same sequences.

CDR-L1	CDR-L2	CDR-L3	group	log10 Kd (nM), mean	seen in
KISMLQRYESQSKNSIA	EMSRREN	QQYHRLPLS	En_HC	-0.23	6 of 6
KLSESWLYESQNSNNVA	DASTRMS	QQYHRLPLS	GP_Gibbs	-0.23	6 of 6
KMAQGWGYESRNKNNVA	NASQRES	QQYHRLPLS	GP_Gibbs	-0.22	6 of 6
MISDLTMYGSRNKNSVA	DLSTRGS	QDYHRLPLS	En_HC	-0.19	6 of 6
KVSWSDELQSRNKGQVA	SASTREL	QQYHRLPLS	GP_Gibbs	-0.15	6 of 6
KLEPFEEEESRNKNSVA	SASTRES	QQYHRLPLS	GP_Gibbs	-0.09	6 of 6
KLHQSELYESRHANNVA	NASQRES	QQYHRLPLS	GP_Gibbs	0.07	6 of 6
TISNVMNTLTRQGNNVA	DLQEREN	QQYFRLPLS	En_Gen	0.09	6 of 6
KVKQSWLYESRMSNNVA	NASKRES	QQYHRLPLS	GP_Gibbs	0.14	6 of 6
KLSQSDLYESRMSNSVA	MASTRMV	QQYHRLPLS	GP_Gibbs	0.18	6 of 6
TLYGLSMSMAKNKNNVA	EMSTREN	QQYDRLPLI	En_Gen	0.20	6 of 6
KISQLANFLGKNKNSVA	QMSTRES	QQYDRLPLS	En_HC	0.22	6 of 6
KLSQSNLYEWRNDNSVA	NASQRMS	QQYHRLPLS	GP_Gibbs	0.22	6 of 6
IVSQLMLWGMHAKNSIA	EAEQRIN	QQYERLPLF	En_Gen	0.27	6 of 6
TISQVMNELTRNTNNVA	DLTERTK	QQYFRLPLS	En_Gen	0.28	6 of 6
NMFDKDYAFDNNEYNIA	ERTTRGL	QQYSRLPLT	En_Gibbs	0.30	6 of 6
HISDLIMVASRNRNSVA	DESTRPD	QQYHRLPLS	En_HC	0.36	6 of 6
KSSPSQLYEERMDNSVA	NASQRES	QQYHRLPLS	GP_Gibbs	0.37	6 of 6
RIEDHHAEGEMRHNSIA	EESYRMD	QHYSRLPLA	En_Gibbs	0.40	6 of 6
KLSQSGLYGMRNKNSVA	QASQRLQ	QQYHRLPLS	GP_Gibbs	0.42	6 of 6
TIGQTLMSGVRNRSNVA	EVSERLN	QQYDRLPLV	En_Gen	0.44	6 of 6
TITGVMQQMSHSKNNVA	EVSTRLE	QQYFRLPLE	En_Gen	0.44	6 of 6
KMEQGVDYESRNKGSVA	GASVRES	QQYHRLPLS	GP_HC	0.47	6 of 6
KVSQSQLYEWRNMNSVA	NASTREM	QQYHRLPLV	GP_Gibbs	0.51	6 of 6
KIGATLNTLYEKADNVA	DLVEREN	QQYHRLPLS	En_Gen	0.59	6 of 6
NISESMYFQTRMKNNIA	EVSTRER	QHYHRLPLS	En_HC	0.72	6 of 6
KLQGSHLYESRNKNSVA	HASQRES	QCYHRLPLS	GP_Gibbs	0.76	6 of 6
QLGSVQDMTSKNKNSVA	EQSTREN	QQYHRLPLS	En_HC	0.78	5 of 6
SLGLATMLEEQVRNSVA	NNSTRED	QQYDRLPLS	En_Gen	0.87	3 of 6
KLYERGEGSQKVDRNIA	EMSTRCE	QSYQRLPLS	En_Gibbs	0.91	6 of 6
TISMSMRYESSLKNAIA	NAQTRES	QQYHRLPIS	En_HC	0.92	6 of 6
KISQMVTYESTWHNAIA	QTSERES	QQYHRLPFS	En_HC	1.00	6 of 6
KISMQYRYEQLSKNSIA	EAQTRLK	QQYHRLPLS	En_HC	1.05	3 of 6
KLVQFMNRGTHHTSNIA	DAQQRLD	QQYYRLPLA	En_Gen	1.09	6 of 6
MISQLFNMGSFAINSVA	QASTRNE	QQYDRLPLI	En_Gen	1.15	6 of 6
KLDMFIPSQWEWDASIA	GATLRHT	QDYARLPLS	En_Gibbs	1.22	6 of 6
MISQLYNMGQFAINSVA	QANLREE	QQYDRLPLM	En_Gen	1.26	6 of 6
MISQLYNMGTFAINSVA	QASQRNA	QQYDRLPLE	En_Gen	1.26	6 of 6
HLYQSELYESRWKNSVA	NASTRLH	QQYHRLPLS	GP_Gibbs	1.43	6 of 6
IVSQLMLWGMHNKNSIA	EAQTRTN	QQYDRLPLF	En_Gen	1.91	2 of 6
MISQLWNMGQFAINSVA	QASERSE	QQYDRLPLI	En_Gen	1.93	3 of 6
HVSMLTLQGMRHRNSVA	QMTTREN	QQYDRLPLS	En_Gen	1.94	6 of 6
MLGDVAFGLSRKHNSVA	DNSTRES	QQYDRLPLS	En_Gen	1.96	5 of 6
KLTKSQYNWTSHYQAVA	EQNMRAT	QSYYRLPFS	En_Gibbs	1.96	4 of 6
HIGLATMLEETVRNSVA	NNSTRES	QQYDRLPLS	En_Gen	2.24	6 of 6
TISQSTYWESFNKNNVA	QTSTREE	QDYDRLPLS	En_HC	2.43	3 of 6
ALSHPSDSWQIHQNSIA	DDNLSLT	QQYHQLPLS	En_Gibbs	2.71	2 of 6
MISQLMNIGTFAINSVA	QASLRCN	QQYDRLPLI	En_Gen	2.80	3 of 6
SISMSMAFLSRNKNSVA	ENSTRES	QQYDRLPLL	En_HC	3.07	2 of 6
KLPQSTMQNSVSKNSVA	ELSTRGS	QQYHRLPLS	En_HC	3.32	1 of 6
KSSHSVVYSSDNKNSVA	NASTRES	QFYHILGLY	Ctrl	3.32	1 of 6
YMSGQIDGGWNQQEAIA	EVTYKED	QQYYHLPLS	En_Gibbs	3.62	1 of 6
KLSLGLGVQKQVYYNIA	NESLKTA	QHYDRLPLT	En_Gibbs	not detected	0 of 6
IVSQLMLWGMHAKNSIA	EAEMRLN	QQYHRLPLF	En_Gen	not detected	0 of 6
KLSATYRFESQNKNSIA	EMSTRES	QCYHRLPLS	En_HC	not detected	0 of 6
HISYSMAHLSKNKNSVA	NQQTREQ	QQYHRLPLS	En_HC	not detected	0 of 6
FMEMDFDGNSVNHNSIA	SSEVVTR	QHYYRLPLS	En_Gibbs	not detected	0 of 6
KITFQMMSSNAHDYSIA	QTNVYSQ	QQYNRLPLD	En_Gibbs	not detected	0 of 6

Again, the first 3 entries without any signal:

CDR-L1	CDR-L2	CDR-L3	group	log10 Kd (nM), mean	seen in
KLSLGLGVQKQVYYNIA	NESLKTA	QHYDRLPLT	En_Gibbs	not detected	0 of 6
IVSQLMLWGMHAKNSIA	EAEMRLN	QQYHRLPLF	En_Gen	not detected	0 of 6
KLSATYRFESQNKNSIA	EMSTRES	QCYHRLPLS	En_HC	not detected	0 of 6

The measurements come from Li et al. 2023 (doi:10.1038/s41467-023-39022-2) through the FLAb antibody collection.